Data published in ChEMBL document CHEMBL4028801, “A multifactorial approach to hepatobiliary transporter assessment enables improved therapeutic compound development” (Toxicol Sci, 2013).
Values belong to the compound of their own block, whether it stands above or below them.

The chains behind the UniProt entries cited, without tags or fusion partners. Where a name states a change or a piece, a line headed by the entry shows the natural chain unless it says otherwise.
UniProt Q92887: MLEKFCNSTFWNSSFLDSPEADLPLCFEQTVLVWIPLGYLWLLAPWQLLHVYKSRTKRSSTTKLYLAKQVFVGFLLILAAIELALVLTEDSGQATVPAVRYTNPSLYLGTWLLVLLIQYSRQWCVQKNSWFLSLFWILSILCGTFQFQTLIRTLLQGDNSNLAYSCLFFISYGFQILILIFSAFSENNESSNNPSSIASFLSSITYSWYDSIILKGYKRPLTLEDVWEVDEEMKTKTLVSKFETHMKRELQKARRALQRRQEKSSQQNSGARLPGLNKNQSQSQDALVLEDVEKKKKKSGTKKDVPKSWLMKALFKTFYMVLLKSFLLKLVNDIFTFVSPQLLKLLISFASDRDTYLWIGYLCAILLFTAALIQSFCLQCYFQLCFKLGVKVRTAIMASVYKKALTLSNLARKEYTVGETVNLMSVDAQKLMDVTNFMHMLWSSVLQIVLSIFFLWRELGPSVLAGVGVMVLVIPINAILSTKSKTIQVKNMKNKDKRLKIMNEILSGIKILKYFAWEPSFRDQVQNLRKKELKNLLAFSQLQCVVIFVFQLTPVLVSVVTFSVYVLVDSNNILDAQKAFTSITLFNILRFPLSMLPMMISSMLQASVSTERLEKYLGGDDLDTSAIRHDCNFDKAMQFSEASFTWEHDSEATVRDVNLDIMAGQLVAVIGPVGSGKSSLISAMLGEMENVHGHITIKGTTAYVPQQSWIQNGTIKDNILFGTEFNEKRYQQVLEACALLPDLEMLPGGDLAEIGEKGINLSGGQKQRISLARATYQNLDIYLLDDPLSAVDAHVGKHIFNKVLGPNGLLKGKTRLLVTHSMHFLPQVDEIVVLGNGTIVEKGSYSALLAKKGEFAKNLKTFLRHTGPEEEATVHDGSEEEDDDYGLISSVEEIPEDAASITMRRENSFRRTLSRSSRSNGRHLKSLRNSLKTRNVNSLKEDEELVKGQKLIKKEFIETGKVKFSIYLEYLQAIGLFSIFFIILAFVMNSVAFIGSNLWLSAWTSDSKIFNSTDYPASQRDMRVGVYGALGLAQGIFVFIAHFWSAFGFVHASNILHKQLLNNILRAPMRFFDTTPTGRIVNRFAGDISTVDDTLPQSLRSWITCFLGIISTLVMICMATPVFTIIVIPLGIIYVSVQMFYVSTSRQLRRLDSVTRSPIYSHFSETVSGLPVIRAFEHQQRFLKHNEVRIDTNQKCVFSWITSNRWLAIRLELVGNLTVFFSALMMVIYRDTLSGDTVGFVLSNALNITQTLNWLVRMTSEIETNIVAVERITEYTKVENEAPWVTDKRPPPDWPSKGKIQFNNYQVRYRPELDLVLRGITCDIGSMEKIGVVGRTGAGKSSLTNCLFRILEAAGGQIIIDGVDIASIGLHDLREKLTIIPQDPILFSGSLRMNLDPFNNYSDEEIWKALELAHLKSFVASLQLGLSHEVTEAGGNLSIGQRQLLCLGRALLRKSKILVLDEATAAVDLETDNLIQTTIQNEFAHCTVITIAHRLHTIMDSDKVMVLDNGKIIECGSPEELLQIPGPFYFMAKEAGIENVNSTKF
UniProt O95342, whole entry: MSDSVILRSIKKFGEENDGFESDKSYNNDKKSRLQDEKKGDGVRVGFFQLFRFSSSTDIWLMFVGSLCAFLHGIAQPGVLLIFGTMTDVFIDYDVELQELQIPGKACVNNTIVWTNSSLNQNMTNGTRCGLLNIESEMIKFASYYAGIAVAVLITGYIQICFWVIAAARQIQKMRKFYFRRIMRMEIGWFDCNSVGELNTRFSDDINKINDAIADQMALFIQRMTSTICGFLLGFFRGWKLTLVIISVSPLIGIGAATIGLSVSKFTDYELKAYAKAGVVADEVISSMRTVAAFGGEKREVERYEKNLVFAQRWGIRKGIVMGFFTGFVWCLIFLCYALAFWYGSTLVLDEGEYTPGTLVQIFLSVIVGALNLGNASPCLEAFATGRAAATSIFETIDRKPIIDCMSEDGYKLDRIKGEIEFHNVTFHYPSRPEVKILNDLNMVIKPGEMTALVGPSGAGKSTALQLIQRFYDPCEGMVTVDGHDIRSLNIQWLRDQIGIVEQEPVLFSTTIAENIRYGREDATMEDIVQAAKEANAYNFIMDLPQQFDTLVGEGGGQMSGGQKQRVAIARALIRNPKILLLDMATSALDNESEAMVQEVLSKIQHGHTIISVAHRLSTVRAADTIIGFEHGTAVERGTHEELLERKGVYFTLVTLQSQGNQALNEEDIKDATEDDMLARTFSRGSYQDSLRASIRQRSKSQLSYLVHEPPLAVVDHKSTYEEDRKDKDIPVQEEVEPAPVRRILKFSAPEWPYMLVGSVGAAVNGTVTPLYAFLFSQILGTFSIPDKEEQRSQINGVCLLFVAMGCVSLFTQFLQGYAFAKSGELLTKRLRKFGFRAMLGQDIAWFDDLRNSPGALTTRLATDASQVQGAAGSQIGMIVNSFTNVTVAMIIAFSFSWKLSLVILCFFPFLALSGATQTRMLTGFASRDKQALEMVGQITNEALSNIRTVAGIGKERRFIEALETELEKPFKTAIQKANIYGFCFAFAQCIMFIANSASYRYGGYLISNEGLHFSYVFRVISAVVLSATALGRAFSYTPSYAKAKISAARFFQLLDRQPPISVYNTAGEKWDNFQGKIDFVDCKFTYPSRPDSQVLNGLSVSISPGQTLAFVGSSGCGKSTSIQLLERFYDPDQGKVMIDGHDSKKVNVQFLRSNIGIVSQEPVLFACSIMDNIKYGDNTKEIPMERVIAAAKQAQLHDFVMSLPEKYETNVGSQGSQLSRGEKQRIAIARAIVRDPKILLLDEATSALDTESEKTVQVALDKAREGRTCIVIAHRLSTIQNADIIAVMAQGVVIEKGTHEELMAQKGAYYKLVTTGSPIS
UniProt O15438: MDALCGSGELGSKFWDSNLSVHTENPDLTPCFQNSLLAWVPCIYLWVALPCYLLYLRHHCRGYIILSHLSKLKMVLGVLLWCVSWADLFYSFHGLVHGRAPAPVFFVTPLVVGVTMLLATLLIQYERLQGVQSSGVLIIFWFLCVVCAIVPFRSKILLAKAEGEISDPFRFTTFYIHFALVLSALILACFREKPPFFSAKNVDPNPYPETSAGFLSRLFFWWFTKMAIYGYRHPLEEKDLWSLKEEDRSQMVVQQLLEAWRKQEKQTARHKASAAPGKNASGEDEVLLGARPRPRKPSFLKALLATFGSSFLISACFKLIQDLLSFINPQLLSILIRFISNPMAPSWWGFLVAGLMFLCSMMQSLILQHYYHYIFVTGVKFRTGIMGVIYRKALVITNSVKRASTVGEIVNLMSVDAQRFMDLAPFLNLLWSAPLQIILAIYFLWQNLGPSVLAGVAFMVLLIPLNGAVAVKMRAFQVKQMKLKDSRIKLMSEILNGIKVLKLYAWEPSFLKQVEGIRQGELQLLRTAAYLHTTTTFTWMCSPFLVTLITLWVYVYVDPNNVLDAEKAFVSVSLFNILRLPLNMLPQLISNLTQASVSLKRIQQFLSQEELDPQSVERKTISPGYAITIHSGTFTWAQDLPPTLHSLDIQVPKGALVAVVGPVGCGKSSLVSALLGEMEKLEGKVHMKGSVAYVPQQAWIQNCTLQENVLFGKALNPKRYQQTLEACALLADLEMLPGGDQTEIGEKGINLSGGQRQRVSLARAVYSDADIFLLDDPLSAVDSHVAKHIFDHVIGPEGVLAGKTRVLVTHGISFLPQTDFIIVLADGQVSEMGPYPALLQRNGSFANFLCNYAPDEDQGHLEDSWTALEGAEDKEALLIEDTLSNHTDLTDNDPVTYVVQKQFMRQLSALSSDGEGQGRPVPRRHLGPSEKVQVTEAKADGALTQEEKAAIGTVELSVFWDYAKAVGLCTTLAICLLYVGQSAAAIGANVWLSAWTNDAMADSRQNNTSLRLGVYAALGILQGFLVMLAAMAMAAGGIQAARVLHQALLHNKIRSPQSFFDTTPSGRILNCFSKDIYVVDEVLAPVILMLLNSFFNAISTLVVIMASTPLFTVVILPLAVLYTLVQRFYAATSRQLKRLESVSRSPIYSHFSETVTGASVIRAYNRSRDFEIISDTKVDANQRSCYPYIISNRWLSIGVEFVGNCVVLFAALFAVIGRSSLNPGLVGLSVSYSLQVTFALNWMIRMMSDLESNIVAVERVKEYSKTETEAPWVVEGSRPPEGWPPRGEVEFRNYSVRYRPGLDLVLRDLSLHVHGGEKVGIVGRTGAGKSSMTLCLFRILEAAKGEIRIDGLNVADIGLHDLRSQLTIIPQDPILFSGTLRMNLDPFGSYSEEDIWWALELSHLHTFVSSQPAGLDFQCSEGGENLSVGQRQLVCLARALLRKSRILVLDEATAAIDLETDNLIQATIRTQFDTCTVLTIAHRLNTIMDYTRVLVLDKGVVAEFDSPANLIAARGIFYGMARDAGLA

Assays:
[1] = target: ATP-binding cassette sub-family C member 2 (Homo sapiens, UniProt Q92887)
Bile salt export pump = Bile salt export pump (Homo sapiens, UniProt O95342); type: ADME, cell-based
[2] = target: ATP-binding cassette sub-family C member 3 (Homo sapiens, UniProt O15438); type: ADME, cell-based

IC50 [1]: 64.2 µM
Structure (SMILES): C[C@](N)(Cc1ccc(O)c(O)c1)C(=O)O

IC50 (Bile salt export pump): > 133 µM
Structure (SMILES): CCN(CC)CC(=O)Nc1c(C)cccc1C [LIDOCAINE]

IC50 [2]: > 133 µM
Structure (SMILES): Cn1c(=O)c2c(ncn2C)n(C)c1=O [CAFFEINE]
